The source of these data is US20250084169A1 (published 2025).

In one assay the target is T1, human CD19 on cells (human, UniProt P15391 20-556).
T1 construct: also called cell surface CD19
T1 sequence (looked up): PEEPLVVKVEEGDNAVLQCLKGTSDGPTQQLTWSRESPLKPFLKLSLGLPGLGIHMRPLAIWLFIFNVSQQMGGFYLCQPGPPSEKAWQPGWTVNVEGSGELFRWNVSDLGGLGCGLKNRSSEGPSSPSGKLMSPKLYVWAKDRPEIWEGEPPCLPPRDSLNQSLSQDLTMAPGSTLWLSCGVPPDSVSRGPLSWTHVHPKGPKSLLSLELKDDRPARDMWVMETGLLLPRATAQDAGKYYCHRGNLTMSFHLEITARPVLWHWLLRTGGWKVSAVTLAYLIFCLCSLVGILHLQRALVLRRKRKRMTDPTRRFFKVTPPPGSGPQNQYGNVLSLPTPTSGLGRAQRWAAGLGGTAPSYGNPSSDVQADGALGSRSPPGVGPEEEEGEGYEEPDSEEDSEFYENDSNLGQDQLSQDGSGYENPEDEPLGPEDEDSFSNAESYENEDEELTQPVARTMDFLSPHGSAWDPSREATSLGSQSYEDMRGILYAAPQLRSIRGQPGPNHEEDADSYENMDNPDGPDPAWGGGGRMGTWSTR
The assay can be described thus: flow cytometry on PBMC B cells, anti-human Fcγ-PE. A general note: A flow cytometer gives signals particle by particle.

In assay [1] the target is T2, cynomolgus monkey CD19 on cells (cynomolgus monkey, UniProt A0A2K5W8L9 20-557).
T2 sequence: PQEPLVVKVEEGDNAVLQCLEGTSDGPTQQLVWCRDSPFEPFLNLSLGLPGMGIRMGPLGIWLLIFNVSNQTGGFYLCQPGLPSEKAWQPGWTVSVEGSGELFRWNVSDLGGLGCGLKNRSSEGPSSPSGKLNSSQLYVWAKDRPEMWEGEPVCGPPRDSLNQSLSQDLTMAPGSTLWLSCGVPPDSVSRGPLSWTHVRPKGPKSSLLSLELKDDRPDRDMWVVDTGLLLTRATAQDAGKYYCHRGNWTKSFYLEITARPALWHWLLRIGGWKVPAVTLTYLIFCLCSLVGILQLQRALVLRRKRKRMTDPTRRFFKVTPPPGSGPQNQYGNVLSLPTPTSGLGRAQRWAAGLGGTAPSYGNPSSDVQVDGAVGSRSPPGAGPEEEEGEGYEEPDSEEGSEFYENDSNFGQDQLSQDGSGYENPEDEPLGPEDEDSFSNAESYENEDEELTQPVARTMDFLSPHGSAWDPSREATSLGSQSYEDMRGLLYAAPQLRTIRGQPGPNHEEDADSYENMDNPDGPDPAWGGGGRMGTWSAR
The assay can be described thus: flow cytometry on PBMC B cells, anti-human Fcγ-PE.

Assay [2] concerns the target T3, recombinant human Fc gamma RI (CD64) (human, UniProt P12314 16-288).
T3 construct: also called FcRγI; FcgRI
In words: BLI (Octet), FcγR on sensor, bivalent format.

Assay [3] deals with T4, recombinant human Fc gamma RIIb/c (CD32b/c) (human, UniProt P31994 46-217).
T4 construct: also called FcRγIIb; FcgRIIb/c
T4 sequence (looked up): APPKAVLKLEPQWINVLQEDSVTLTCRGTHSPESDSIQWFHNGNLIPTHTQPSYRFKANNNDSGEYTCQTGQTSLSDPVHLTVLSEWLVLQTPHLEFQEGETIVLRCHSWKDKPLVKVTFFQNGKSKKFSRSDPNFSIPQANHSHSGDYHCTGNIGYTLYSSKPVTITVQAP
The assay can be described thus: BLI (Octet), FcγR on sensor, bivalent format. For orientation: Biolayer interferometry detects binding as a change in optical thickness at a sensor tip.

In assay [4] the target is T5, recombinant human Fc gamma RIIIa (CD16a) 158F (human, UniProt P08637 17-208).
T5 construct: also called FcRγIIIa
In words: BLI (Octet), FcγR on sensor, bivalent format.

In assay [5] the target is T6, recombinant human Fc gamma RIIa (CD32a) 131R (human, UniProt P12318 36-218).
T6 construct: also called Fc gamma RIIa (CD32) (Arg167)
T6 sequence (looked up): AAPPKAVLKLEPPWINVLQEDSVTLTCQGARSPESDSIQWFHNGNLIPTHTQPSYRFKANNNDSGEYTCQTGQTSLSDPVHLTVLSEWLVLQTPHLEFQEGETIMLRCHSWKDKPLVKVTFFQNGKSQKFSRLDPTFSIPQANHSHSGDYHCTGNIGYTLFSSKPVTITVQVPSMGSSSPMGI
In words: BLI (Octet), FcγR on sensor, bivalent format.

For assay [6], the target named is T7, recombinant human Fc gamma RIIIa (CD16a) 158V (human, UniProt P08637 17-208).
T7 construct: also called FcRγIIIa; FcgRIIIa 158 V
In words: BLI (Octet), FcγR on sensor, bivalent format.

The target of assay [7] is T8, recombinant human Fc gamma RIIa (CD32a) 131H (human, UniProt P12318 36-218).
T8 construct: also called FcRγIIa
T8 sequence (looked up): T6 sequence (looked up) with R132H
The assay can be described thus: BLI (Octet), FcγR on sensor, bivalent format.

For assay [8], the target named is T9, recombinant human Fc gamma RIIIb (CD16b) (human, UniProt O75015 17-200).
T9 construct: also called FcRγIIIb
The assay can be described thus: BLI (Octet), FcγR on sensor, bivalent format.

In assay [9] the target is T10, cynomolgus monkey Fc gamma receptor CD32b (cynomolgus monkey).
T10 construct: also called CD32b (cynomolgus)
In words: BLI (Octet), cynomolgus FcγR on sensor.

Assay [10] concerns the target T11, cynomolgus monkey Fc gamma receptor CD32a (cynomolgus monkey).
T11 construct: also called CD32a (cynomolgus)
The assay can be described thus: BLI (Octet), cynomolgus FcγR on sensor.

For assay [11], the target named is T12, cynomolgus monkey Fc gamma receptor CD16 (cynomolgus monkey, UniProt Q8SPW2 17-208).
T12 construct: also called CD16 (cynomolgus)
The assay can be described thus: BLI (Octet), cynomolgus FcγR on sensor.

For assay [12], the target named is T10, cynomolgus monkey Fc gamma receptor …. In words: SPR (Carterra), monovalent format.
In assay [13] the target is T11, cynomolgus monkey Fc gamma receptor …. In words: SPR (Carterra), monovalent format.
In assay [14] the target is T12, cynomolgus monkey Fc gamma receptor CD16. In words: SPR (Carterra), monovalent format.

Where a chain is given by its changes, count along the chain named. Names may count otherwise.

B1: Tafasitamab-cxix (research grade biosimilar) (antibody, human IgG1, kappa)
heavy: EVQLVESGGGLVKPGGSLKLSCAASGYTFTSYVMHWVRQAPGKGLEWIGYINPYNDGTKYNEKFQGRVTISSDKSISTAYMELSSLRSEDTAMYYCARGTYYYGTRVFDYWGQGTLVTVSSASTKGPSVFPLAPSSKSTSGGTAALGCLVKDYFPEPVTVSWNSGALTSGVHTFPAVLQSSGLYSLSSVVTVPSSSLGTQTYICNVNHKPSNTKVDKKVEPKSCDKTHTCPPCPAPELLGGPDVFLFPPKPKDTLMISRTPEVTCVVVDVSHEDPEVQFNWYVDGVEVHNAKTKPREEQFNSTFRVVSVLTVVHQDWLNGKEYKCKVSNKALPAPEEKTISKTKGQPREPQVYTLPPSREEMTKNQVSLTCLVKGFYPSDIAVEWESNGQPENNYKTTPPMLDSDGSFFLYSKLTVDKSRWQQGNVFSCSVMHEALHNHYTQKSLSLSPG
light: not shown
notes: also called Tafasitamab-S239D/1332E; Protein ID 22-02
Turning to B1, the Emax with human CD19 on cells worked out at 55000 gMFI; in assay [1], 32000 gMFI. Moreover, the “Fold (KD of rituximab / KD)” value in [2] worked out at 2 fold; in assay [3], 28.5 fold; in assay [4] it was 12.7 fold; in assay [5], 11.5 fold; in [6], 6.7 fold; in assay [7] it was 7.5 fold. The “Fold (KD of rituximab / KD)” value in [8] is 23.3 fold; in assay [9], 23.9 fold; in assay [10], 32.8 fold; in [11] it was 8.6 fold. The results for the “Fold (KD of MabThera / KD)” value in assay [12], in assay [13] and in [14] were 27.5 fold, 41.1 fold and 96.6 fold, respectively.
